This test in a line: Ratio of inhibitory concentration against prostaglandin G/H synthase 1 to that of prostaglandin G/H synthase 2.

As for `NS(=O)(=O)c1ccc(-n2nc(C(F)(F)F)c3c2-c2ccccc2CC3)cc1`, the Ratio worked out at 1.09.

Source of the values: ChEMBL document CHEMBL1143536, “QSAR analyses of conformationally restricted 1,5-diaryl pyrazoles as selective COX-2 inhibitors: application of connection table representation of ligands” (Bioorg Med Chem Lett, 2005).
